Values quoted from earlier work, collected in patent US6368613B1, “Use of fluorocarbons for diagnosis and treatment of articular disorders” (Alliance Pharmaceutical Corp., priority 1996, dated 2002).

Details: octanol/water partition coefficient

Compound	Log Po/w	Po/w
CN/C(=N/CCSCc1nc[nH]c1C)NC#N [C-cimetidine, cimetidine]	0.4	2.51
CC(=O)[C@H]1CC[C@H]2[C@@H]3CCC4=CC(=O)CC[C@]4(C)[C@H]3CC[C@]12C [C-progesterone, progesterone]	3.9	–
